# Reference: patent US20100168085A1, “Dopamine and agonists and antagonists thereof for modulation of suppressive activity of CD4+CD25+ regulatory T cells” (YESA RESEARCH AND DEVELOPMENT CO. LTD. at the Weizmann …, priority 2003, published 2010)
# System: suppressive activity of CD4+CD25+ regulatory T cells (Treg) on Teff proliferation
# Test: Inhibition assay (co-culturing of Teff with Treg), [3H]-thymidine incorporation
# Assay type: cell-based, mouse
# Description: (xvi) Activation of CD4^+CD25^+ regulatory T cells. Purified regulatory T cells (Treg; 0.5×10^6 cells/mL) were activated in RPMI medium supplemented with L-glutamine (2 mM), 2-mercaptoethanol (5×10^−5 M), sodium pyruvate (1 mM), penicillin (100 IU/mL), streptomycin (100 μg/mL), nonessential amino acids (1 mL/100 mL), and autologous serum 2% (vol/vol) in the presence of mrIL-2 (5 ng/mL) and soluble anti-CD3 antibodies (1 ng/mL). Irradiated (2500 rad) splenocytes (1.5×10^6 cells/mL) were added to the culture. Cells were activated for 24 or 96 h. In some of the 96-h experiments, fresh dopamine was added to the culture every 24 h during activation.
# (xvii) Inhibition assay (co-culturing of Teff with Treg). Naïve effector T cells (Teff; 50×10^3 cells/well) were co-cultured with decreasing numbers of activated Treg for 72 h in 96-well flat-bottomed plates in the presence of irradiated splenocytes (10^6/mL) supplemented with anti-CD3 antibodies. [^3H]-thymidine (1 μCi) was added for the last 16 h of culture. After the cells were harvested, their [^3H]-thymidine content was analyzed by the use of […].
# In this experiment, we examined whether dopamine acts on Treg and alters their suppressive effect on Teff. Suppression of proliferation of Teff, assayed by [^3H]thymidine incorporation, was used as a measure of suppressive effect of Treg (Thornton and Shevach, 1998).
# Shevach, 1998, 2000). […]
structure (smiles),measurement,value
CCCN1CCC[C@@H]2Cc3n[nH]cc3C[C@H]21 [quinpirole],"Effect on suppressive activity of Treg, compound alone",had no effect
same,Effect on the dopamine effect on Treg suppressive activity,did not alter the effect of dopamine
